Laboratory results published in patent publication US20220340916A1, “METHODS FOR TRANSFORMING WHEAT EXPLANTS AND COMPOSITIONS THEREFOR” (MONSANTO TECHNOLOGY LLC, priority 2013, published 2022).

Test system: WDSDEs
Assay: Quality of WDSDEs excised from seeds sanitized in various ways (cleanliness, viability)
Conditions: seed sanitization; 10% Clorox bleach; ethanol used cold (~0° C.)

H2O2
cleanliness of WDSDEs excised from treated seed: less efficient
